For experiment [1], the system named is A549. The experiment is described as follows: Antiproliferative activity against NAMPT inhibitor-resistant A549 cells assessed as reduction in cell viability in presence of verapamil. Format: functional, cell-based. Particulars: Homo sapiens.
Experiment [2] concerns A549. The experiment is described as follows: Downregulation of ATP level in human A549 cells measured for 48 hrs. It is filed as functional, cell-based. Particulars: dose 10-40 nM.
Experiment [3] concerns A549. In words: Antimigratory activity against NAMPT inhibitor-resistant A549 cells assessed as reduction in cell migration at 40 uM incubated for 24 hrs in presence of epacadostat by inverted microscopic analysis. Format: functional, cell-based. Particulars: Homo sapiens.
Experiment [4] relates to A549. The experiment is described as follows: Downregulation of NAD+ level in human A549 cells at 10 to 40 nM measured for 48 hrs. Format: functional, cell-based. Particulars: dose 10-40 nM.
Experiment [5] concerns the target T1, Indoleamine 2,3-dioxygenase 1 (Homo sapiens, UniProt P14902). In words: Potency index, ratio of epacadostat IC50 to test compound IC50 for inhibition of human recombinant IDO1.
Experiment [6] addresses T1, Indoleamine 2,3-dioxygenase 1. The experiment is described as follows: Potency index, ratio of epacadostat IC50 to test compound IC50 for inhibition of human recombinant IDO1 in human HeLa cells. Format: cell-based.

By UniProt entry, the sequences of proteins in these tests, tags left out.
UniProt P14902, whole entry, looked up: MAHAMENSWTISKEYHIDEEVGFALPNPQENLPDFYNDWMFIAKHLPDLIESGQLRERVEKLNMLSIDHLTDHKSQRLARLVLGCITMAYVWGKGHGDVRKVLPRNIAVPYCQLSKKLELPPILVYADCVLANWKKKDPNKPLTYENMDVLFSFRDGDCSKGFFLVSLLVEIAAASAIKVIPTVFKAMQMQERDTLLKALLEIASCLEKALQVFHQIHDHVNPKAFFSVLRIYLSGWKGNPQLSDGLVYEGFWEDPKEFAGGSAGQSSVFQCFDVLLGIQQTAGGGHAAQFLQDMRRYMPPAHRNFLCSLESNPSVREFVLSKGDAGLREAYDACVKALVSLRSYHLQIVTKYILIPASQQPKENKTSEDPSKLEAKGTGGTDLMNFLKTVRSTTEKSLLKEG

Activity calls are given as the source filed them. No cut-off for these calls is given here.

For `O=C(/C=C/c1cccnc1)NCCCCC1CCN(C(=O)c2ccccc2)CC1` [DAPORINAD], the outcome in the experiment with A549 [1] was inactive. For the same compound, in the experiment with A549 [2], the Activity result is “Dose-Dependent Effect”. Further, the outcome with A549 [3] and in the experiment on A549 [4] was Active.
With `O=C(NCCCCCCNc1nonc1/C(=N/O)Nc1ccc(F)c(Br)c1)c1ccc2nccn2c1`, the Ratio IC50 in experiment [5] came to 3; in experiment [6] it was 8.6.

The record behind these values is ChEMBL document CHEMBL5316301, “Dual Nicotinamide Phosphoribosyltransferase (NAMPT) and Indoleamine 2,3-Dioxygenase 1 (IDO1) Inhibitors for the Treatment of Drug-Resistant Nonsmall-Cell Lung Cancer” (J Med Chem, 2023).
